Measurements taken from ChEMBL document CHEMBL4411296, “Design and development of Isatin-triazole hydrazones as potential inhibitors of microtubule affinity-regulating kinase 4 for the therapeutic management of cell proliferation and metastasis” (Eur J Med Chem, 2019).

What was measured:
Format in all cases: functional, cell-based
MDA-MB-435S = experiment: Antiproliferative activity against human MDA-MB-435S cells assessed as cell viability after 48 hrs by MTT assay
HepG2 = experiment: Antiproliferative activity against human HepG2 cells assessed as cell viability after 48 hrs by MTT assay
MCF7 = experiment: Antiproliferative activity against human MCF7 cells assessed as cell viability after 48 hrs by MTT assay

Measured: Activity

COc1ccc(Cn2cc(C(=O)N/N=C3/C(=O)Nc4c(C)cccc43)nn2)cc1
active: MDA-MB-435S Dose-dependent effect | HepG2 = Dose-dependent effect | MCF7 = Dose-dependent effect
